Experimental data taken from patent US7662853B2, “Monoacetyldiacylglycerol derivative for the treatment of sepsis” (priority 2004, dated 2010).

Tests used:
T-cells = assay: T-cell proliferation (3H-thymidine incorporation, SI); format: cell-based, C57BL/6 mice; conditions: 7th day
Text: Splenocytes were collected from C57BL/6 mice (provided from Asan Institute for Life Sciences Animal Lab., Seoul, Korea) spleens. Then, single cell suspensions were obtained by repeated aspiration and flushing. Red blood cells were removed using ammonium chloride and then passed through nylon wool to remove debris and clumps. T-cells were purified using magnetic bead (MACS bead, Miltenyi Biotec, bergich gladbach, Germany) containing anti-goat IgG MACS bead, Miltenyi Biotec, bergich gladbach, Germany) or anti-mouse CD4 (MACS bead, Miltenyi Biotec, bergich gladbach, Germany) or anti-mouse CD8 antibody (MACS bead, Miltenyi Biotec, bergich gladbach, Germany) (Turner and Dockrell (1996) Immunology, 87: 339-342).
T cell suspensions were suspended in Isocove's modified Dulbecco's medium (IMDM, Gibco, Grand Island, N.Y.) supplemented with 10% fetal bovine serum (referred as ‘FBS’ hereinafter) (Gibco, Grand Island, N.Y.). 5×10^4 viable cells per well were cultured in 96-well plates, with 1 μg/ml, of Compound 1, Compound 2, Compound 4 and Compound 5, 0.01, 0.1, 1 μg/ml of Compound 3 (synthesized and provided by Department of Chemistry, Ewha Womans University, Seoul, Korea) or 20 ng/ml of IL-2. […] On the 7th day, the cells were harvested and the […] (referred as ‘SI’ hereinafter) was calculated by the following Mathematical Formula 1. […]

[1] = tested on: T-cells from peripheral blood of AIDS patients; assay: T cell proliferation assay, AIDS patients; format: cell-based, human
Experimental: The following experiment was performed to confirm the effect of Compound 3 against immunocytes of the AIDS patients. First, Human mononuclear cells were obtained by Hisopaque 1077 from peripheral blood of AIDS patients. Red blood cells were removed using ammonium chloride and then passed through nylon wool to remove debris and clumps. T-cells were purified using magnetic bead (anti-human CD3) (MACS bead, Miltenyi Biotec, bergich gladbach, Germany). T cell suspensions were suspended in Isocove's modified Dulbecco's medium (IMDM, Gibco, Grand Island, N.Y.) supplemented with 10% fetal bovine serum (referred as ‘FBS’ hereinafter) (Gibco, Grand Island, N.Y.). 5×10^4 viable cells per well (in triplicate) were cultured in 96-well plates, with 0.01, 0.1, 1 μg/ml concentrations of Compound 3 or IL-2 (20 ng/ml). On the 6th day, cells were incubated with 1 μCi ^3H-thymidine/well for 24 hours. On the 7th day, the cells were harvested and the incorporation of ^3H-thymidine was measured. The SI (Stimulation Index) was calculated by the above mentioned formula 1.

Row | Compound | SI (T-cells; 1 μg/ml, CPM in sample/CPM in control) | SI (T-cells; 20 ng/ml) | Stimulation Index (SI) ([1]; AIDS patient 1, 20 ng/ml) | Stimulation Index (SI) ([1]; AIDS patient 2, 20 ng/ml) | Stimulation Index (SI) ([1]; AIDS patient 3, 20 ng/ml) | Stimulation Index (SI) ([1]; AIDS patient 4, 20 ng/ml)
1 | CCCCC/C=C\C/C=C\CCCCCCCC(=O)OC(COC(C)=O)COC(=O)CCCCCCCCCCCCCCC (stereo not drawn) [Compound 3] | 2.05 ± 0.64 |  |  |  |  | 
2 | IL-2: IL-2, a kind of cytokines, used at 20 ng/ml as comparison |  | 2.05 ± 0.24 | 1.41 | 4.17 | 1.29 | 6.54
